The text below walks through data of patent US7122547B1, “Anthranilic acid amides and the use thereof as medicaments” (Schering AG, priority 1998, dated 2006).

By UniProt entry, the sequences of proteins in these tests, tags left out. Residues count along the entry.
UniProt P17948, 27-1338 limits assumed: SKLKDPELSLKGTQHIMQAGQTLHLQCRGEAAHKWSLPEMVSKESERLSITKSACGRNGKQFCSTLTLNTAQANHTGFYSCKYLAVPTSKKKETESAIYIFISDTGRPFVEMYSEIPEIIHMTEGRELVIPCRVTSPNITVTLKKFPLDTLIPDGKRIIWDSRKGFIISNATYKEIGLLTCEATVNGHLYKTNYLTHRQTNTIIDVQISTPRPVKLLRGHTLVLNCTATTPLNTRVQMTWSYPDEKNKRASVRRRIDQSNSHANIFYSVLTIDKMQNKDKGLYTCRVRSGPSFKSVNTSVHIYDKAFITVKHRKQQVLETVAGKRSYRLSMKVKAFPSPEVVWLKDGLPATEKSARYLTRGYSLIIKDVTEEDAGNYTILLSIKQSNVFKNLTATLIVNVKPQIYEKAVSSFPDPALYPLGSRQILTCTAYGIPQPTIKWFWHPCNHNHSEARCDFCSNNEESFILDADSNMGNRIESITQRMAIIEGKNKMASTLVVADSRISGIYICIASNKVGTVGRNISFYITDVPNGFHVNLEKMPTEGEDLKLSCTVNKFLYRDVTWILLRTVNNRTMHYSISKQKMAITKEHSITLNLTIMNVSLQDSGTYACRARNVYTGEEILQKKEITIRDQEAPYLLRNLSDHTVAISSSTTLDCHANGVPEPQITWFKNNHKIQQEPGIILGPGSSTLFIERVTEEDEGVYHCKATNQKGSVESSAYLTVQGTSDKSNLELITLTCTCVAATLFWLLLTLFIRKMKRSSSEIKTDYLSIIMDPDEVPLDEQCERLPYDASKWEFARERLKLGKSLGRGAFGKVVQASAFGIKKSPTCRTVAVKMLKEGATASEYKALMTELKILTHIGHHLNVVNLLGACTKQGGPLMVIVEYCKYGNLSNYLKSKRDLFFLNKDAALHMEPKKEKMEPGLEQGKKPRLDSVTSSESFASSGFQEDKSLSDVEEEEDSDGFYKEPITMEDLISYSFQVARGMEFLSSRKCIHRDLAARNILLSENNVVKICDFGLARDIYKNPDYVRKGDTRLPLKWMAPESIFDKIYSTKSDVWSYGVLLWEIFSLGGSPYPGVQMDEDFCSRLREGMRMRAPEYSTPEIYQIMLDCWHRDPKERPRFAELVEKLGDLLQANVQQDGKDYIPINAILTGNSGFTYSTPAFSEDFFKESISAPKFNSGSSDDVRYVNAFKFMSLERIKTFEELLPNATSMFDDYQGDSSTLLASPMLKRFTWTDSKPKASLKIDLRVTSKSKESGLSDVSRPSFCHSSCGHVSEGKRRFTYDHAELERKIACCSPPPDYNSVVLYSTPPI
UniProt P35968, 20-1356 limits assumed: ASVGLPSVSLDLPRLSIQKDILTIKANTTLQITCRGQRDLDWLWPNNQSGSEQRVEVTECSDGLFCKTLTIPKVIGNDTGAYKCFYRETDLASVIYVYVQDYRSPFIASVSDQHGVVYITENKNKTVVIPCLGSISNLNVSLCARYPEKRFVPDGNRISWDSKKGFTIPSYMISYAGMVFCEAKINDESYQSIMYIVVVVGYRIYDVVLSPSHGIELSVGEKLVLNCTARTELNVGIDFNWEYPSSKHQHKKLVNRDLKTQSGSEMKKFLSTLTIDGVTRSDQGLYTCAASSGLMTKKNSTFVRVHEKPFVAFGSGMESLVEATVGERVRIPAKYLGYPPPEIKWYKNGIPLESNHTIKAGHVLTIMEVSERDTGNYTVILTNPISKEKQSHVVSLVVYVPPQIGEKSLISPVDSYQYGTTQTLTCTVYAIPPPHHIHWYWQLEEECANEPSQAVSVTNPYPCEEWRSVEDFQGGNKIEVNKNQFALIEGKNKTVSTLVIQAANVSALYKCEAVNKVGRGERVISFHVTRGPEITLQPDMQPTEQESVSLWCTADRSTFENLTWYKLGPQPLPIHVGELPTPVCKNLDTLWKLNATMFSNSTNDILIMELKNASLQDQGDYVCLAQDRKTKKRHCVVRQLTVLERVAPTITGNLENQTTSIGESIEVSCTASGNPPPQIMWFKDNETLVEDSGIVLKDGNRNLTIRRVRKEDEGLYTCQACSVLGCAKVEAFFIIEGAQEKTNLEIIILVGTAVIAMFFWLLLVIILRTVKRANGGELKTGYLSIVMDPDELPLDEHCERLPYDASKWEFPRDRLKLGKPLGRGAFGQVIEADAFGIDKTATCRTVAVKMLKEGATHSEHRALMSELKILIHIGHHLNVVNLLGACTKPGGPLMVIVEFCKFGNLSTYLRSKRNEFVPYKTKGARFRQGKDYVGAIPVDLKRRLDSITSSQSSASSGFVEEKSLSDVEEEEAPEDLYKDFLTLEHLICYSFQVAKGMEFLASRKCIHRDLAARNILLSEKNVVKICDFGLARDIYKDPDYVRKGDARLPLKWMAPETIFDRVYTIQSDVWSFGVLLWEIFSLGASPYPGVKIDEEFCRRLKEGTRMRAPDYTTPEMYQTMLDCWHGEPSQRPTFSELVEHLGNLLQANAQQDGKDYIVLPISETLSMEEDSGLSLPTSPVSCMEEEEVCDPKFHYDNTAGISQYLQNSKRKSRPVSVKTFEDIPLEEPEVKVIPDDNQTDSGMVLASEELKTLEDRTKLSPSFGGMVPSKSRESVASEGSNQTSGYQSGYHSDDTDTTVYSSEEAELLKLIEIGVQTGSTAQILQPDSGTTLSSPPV

One assay deals with VEGFR I (FLT) (Homo sapiens, UniProt P17948). Put plainly: Inhibition of FLT-1 kinase activity (33P-ATP, poly-(Glu4Tyr) phosphocellulose filter assay). In kind it is biochemical. The settings on record: read-out: kinase-inhibition IC50 VEGFR I (FLT), 10 minutes at room temperature, KH = keine Hemmung = No inhibition.
In the next assay the target is VEGFR II (KDR) (Homo sapiens, UniProt P35968). The assay can be described thus: Inhibition of KDR kinase activity (33P-ATP, poly-(Glu4Tyr) phosphocellulose filter assay). Format: biochemical. The following applies: read-out: kinase-inhibition IC50 VEGFR II (KDR), 10 minutes at room temperature, KH = keine Hemmung = No inhibition.

Structures are written as SMILES.

For `O=C(NCCCCc1ccccc1)c1ccccc1NCc1ccncc1`, the IC50 on VEGFR I (FLT) was 5 nM; on VEGFR II (KDR), 20 nM. On the same counts, the results for `O=C(NCCc1ccc(O)cc1)c1ccccc1NCc1ccncc1` are 50 nM and 200 nM. As to `O=C(NCCc1ccccc1)c1ccccc1NCc1ccncc1`, the figures for the IC50 at VEGFR I (FLT) and at VEGFR II (KDR) were 40 nM and 50 nM, respectively. On to `O=C(Nc1nc2ccccc2s1)c1cc(Cl)ccc1NCc1ccncc1`, for which, on VEGFR II (KDR), the half-inhibitory concentration (IC50) turned out to be 50 nM. As for `O=C(NNCc1ccccc1)c1ccccc1NCc1ccncc1`, the values for the 50% inhibitory concentration (IC50) at VEGFR I (FLT) and on VEGFR II (KDR) were 300 nM and 200 nM, respectively.

Turning to `O=C(NCCc1cccnc1)c1ccccc1NCc1ccncc1`, the concentration for half-maximal inhibition (IC50) on VEGFR I (FLT) was 1000 nM; at VEGFR II (KDR) it was 2000 nM.

As to `O=C(Nc1nc2ccccc2s1)c1ccc(F)cc1NCc1ccncc1`, the 50% inhibitory concentration (IC50) was determined as 50 nM at VEGFR I (FLT) and 40 nM on VEGFR II (KDR). On the same counts, the results for `O=C(NCCc1ccncc1)c1ccccc1NCc1ccncc1` are 2000 nM and 3000 nM.
